Earlier results in publication PMC7081907, “Discovery and Selection of Hepatitis B Virus-Derived T Cell Epitopes for Global Immunotherapy Based on Viral Indispensability, Conservation, and HLA-Binding Strength” (Journal of Virology, 2020).

Tested on: HBV-specific T cells
Conditions: cumulative over papers, responder = positive multimer staining and/or IFN-γ ELISPOT, ref Hepitopes database [24], [49], cited from earlier work; for % responders (no. of responders/total no. of subjects tested), HCC: HBV-positive HCC patients
Text: TABLE 1 Ranking of reported epitopes for HBx based on conservation and function^a | column: % responders (no. of responders/total no. of subjects tested) / Acute; % responders (no. of responders/total no. of subjects tested) / Chronic; % responders (no. of responders/total no. of subjects tested) / HCC || TABLE 2 Ranking of reported epitopes for polymerase based on conservation and function^a | column: % responders (no. of responders/total no. of subjects tested) / Acute; % responders (no. of responders/total no. of subjects tested) / Chronic; % responders (no. of responders/total no. of subjects tested) / HCC
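Further: responder rates refer to previously reported epitopes of HBx or polymerase.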

Sequence	% responders (no. of responders/total no. of subjects tested), HCC	% responders (no. of responders/total no. of subjects tested), Acute (patients with acute/resolved HBV infection, asterisk = significantly more prevalent than in other groups)
KLHLYSHPI [p500-508]	0 (0/10) %	–
LLAQFTSAI	0 (0/10) %	–
FLLAQFTSAI	0 (0/10) %	–
FPHCLAFSYM	–	0 (0/12) %
